Results published in patent publication US10787490B2, “Peptide inhibitors of interleukin-23 receptor and their use to treat inflammatory diseases” (Protagonist Therapeutics, Inc., priority 2015, dated 2020).
pIC50: −log10 of the molar value.

By UniProt entry, the sequences of proteins in these tests, tags left out. Residues count along the entry.
UniProt Q5VWK5, 24-354 limits assumed, looked up: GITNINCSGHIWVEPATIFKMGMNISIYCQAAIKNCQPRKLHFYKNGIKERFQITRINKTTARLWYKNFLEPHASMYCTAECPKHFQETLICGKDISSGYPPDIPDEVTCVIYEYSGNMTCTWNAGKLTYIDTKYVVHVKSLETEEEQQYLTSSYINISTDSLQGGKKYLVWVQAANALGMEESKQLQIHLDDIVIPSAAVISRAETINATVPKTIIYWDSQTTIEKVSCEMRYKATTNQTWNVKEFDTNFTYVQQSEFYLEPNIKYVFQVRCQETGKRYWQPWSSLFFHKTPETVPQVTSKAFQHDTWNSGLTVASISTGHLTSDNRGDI

Each molecule was assayed against human IL-23R (IL23R_huFC) (Homo sapiens, UniProt Q5VWK5). Details: read-out: Human ELISA IC50; Table E4B; numeric bounds.
With `CC(=O)N[C@@H]1C(=O)N[C@@H](CCC(N)=O)C(=O)N[C@@H]([C@@H](C)O)C(=O)N[C@@H](Cc2c[nH]c3ccccc23)C(=O)N[C@@H](CCC(N)=O)C(=O)N[C@H](C(=O)N[C@@H](Cc2ccc(O)cc2)C(=O)N[C@@H](Cc2c[nH]c3ccccc23)C(=O)N(C)[C@@H](CCCNC(=N)N)C(=O)N[C@@H](CCC(=O)O)C(=O)N[C@@H](CC(N)=O)C(=O)NCC(N)=O)C(C)(C)SSC1(C)C` [compound 550] the pIC50 was < 4.52.
With `CC(=O)N[C@@H](C)C(=O)N[C@@H]1C(=O)N[C@@H](CC(=O)O)C(=O)N[C@@H](Cc2c[nH]c3ccccc23)C(=O)N[C@@H](C(C)C)C(=O)N[C@H](C(=O)N[C@@H](Cc2ccc(O)cc2)C(=O)N[C@@H](Cc2c[nH]c3ccccc23)C(=O)N[C@@H](CCCN)C(=O)N[C@@H](CN)C(=O)N[C@@H](Cc2ccccc2)C(=O)NCC(=O)NCCOCC(=O)N[C@H](CCCCN)C(N)=O)C(C)(C)SSC1(C)C` [compound 553] the pIC50 was < 4.52.

Same assay, conditions: read-out: Human IL23/IL23R ELISA IC50; Table E3H
Molecule `CC(=O)N[C@H]1CSSC[C@@H](C(=O)N[C@@H](Cc2ccc(O)cc2)C(=O)N[C@@H](Cc2c[nH]c3ccccc23)C(=O)N[C@@H](CCC(C)C)C(=O)N2CCC[C@H]2C(=O)N[C@@H](CC(N)=O)C(=O)NCC(N)=O)NC(=O)[C@H](CCC(N)=O)NC(=O)[C@H](Cc2c[nH]c3ccccc23)NC(=O)[C@H]([C@@H](C)O)NC(=O)[C@H](CCC(N)=O)NC1=O` [compound 404] has a pIC50 of 5.32.
For `CC(=O)N[C@H]1CSSC[C@@H](C(=O)N[C@@H](Cc2ccc(O)cc2)C(=O)N[C@@H](Cc2c[nH]c3ccccc23)C(=O)N[C@@H](CCC(C)C)C(=O)N[C@H](C(=O)N[C@@H](CC(N)=O)C(=O)NCC(N)=O)[C@@H](C)O)NC(=O)[C@H](CCC(N)=O)NC(=O)[C@H](Cc2c[nH]c3ccccc23)NC(=O)[C@H]([C@@H](C)O)NC(=O)[C@H](CCC(N)=O)NC1=O` [compound 407], the pIC50 was 6.96.
In the case of `CC(=O)N[C@H]1CSSC[C@@H](C(=O)N[C@@H](Cc2ccc(O)cc2)C(=O)N[C@@H](Cc2c[nH]c3ccccc23)C(=O)N2CCC[C@H]2C(=O)N[C@@H](CCC(=O)O)C(=O)N[C@@H](CC(N)=O)C(=O)NCC(N)=O)NC(=O)[C@H](CCC(N)=O)NC(=O)[C@H](Cc2c[nH]c3ccccc23)NC(=O)[C@H]([C@@H](C)O)NC(=O)[C@H](CCC(N)=O)NC1=O` [compound 409], the pIC50 was < 4.52.
`CC(=O)N[C@H]1CSSC[C@@H](C(=O)N[C@@H](Cc2ccc(O)cc2)C(=O)N[C@@H](Cc2c[nH]c3ccccc23)C(=O)N[C@@H](CCC(C)C)C(=O)N[C@@H](CCC(=O)O)C(=O)N[C@@H](CC(N)=O)C(=O)NCC(=O)N[C@@H](CC(C)C)C(N)=O)NC(=O)[C@H](CCC(N)=O)NC(=O)[C@H](Cc2c[nH]c3ccccc23)NC(=O)[C@H]([C@@H](C)O)NC(=O)[C@H](CCC(N)=O)NC1=O` [compound 472] gave a pIC50 of 6.76.
With `CC(=O)N[C@H]1CSSC[C@@H](C(=O)N[C@@H](Cc2ccc(O)cc2)C(=O)N[C@@](C)(Cc2c[nH]c3ccccc23)C(=O)N[C@@H](CCC(C)C)C(=O)N[C@@H](CCC(=O)O)C(=O)N[C@@H](CCC(N)=O)C(=O)NCC(N)=O)NC(=O)[C@H](CCC(N)=O)NC(=O)[C@H](Cc2c[nH]c3ccccc23)NC(=O)[C@H]([C@@H](C)O)NC(=O)[C@H](CCC(N)=O)NC1=O` [compound 496] the pIC50 was < 4.52.
`CC(=O)N[C@H]1CSSC[C@@H](C(=O)N[C@@H](Cc2ccc(O)cc2)C(=O)N[C@@H](Cc2c[nH]c3ccccc23)C(=O)N[C@@H](CCCNC(=N)N)C(=O)N[C@@H](CC(N)=O)C(=O)N[C@@H](Cc2ccccc2)C(=O)N[C@@H](CCC(=O)O)C(=O)N[C@@H](CO)C(=O)NCC(N)=O)NC(=O)[C@H](CCC(N)=O)NC(=O)[C@H](Cc2c[nH]c3ccccc23)NC(=O)[C@H]([C@@H](C)O)NC(=O)[C@H](CCC(N)=O)NC1=O` [compound 508] was tested, and the pIC50 was 6.50.
With `CC(=O)N[C@H]1CSSC[C@@H](C(=O)N[C@@H](Cc2ccc(O)cc2)C(=O)N[C@@H](Cc2c[nH]c3ccccc23)C(=O)N2CCC[C@@H]2C(=O)N[C@@H](CCC(=O)O)C(=O)N[C@@H](CC(N)=O)C(=O)NCC(N)=O)NC(=O)[C@H](CCC(N)=O)NC(=O)[C@H](Cc2c[nH]c3ccccc23)NC(=O)[C@H]([C@@H](C)O)NC(=O)[C@H](CCC(N)=O)NC1=O` [compound 512] the pIC50 was < 4.52.
